Assay results as given in ChEMBL document CHEMBL1133383, “Synthesis and enzyme inhibitory activities of a series of lipidic diamine and aminoalcohol derivatives on cytosolic and secretory phospholipases A2” (Bioorg Med Chem Lett, 2000).

Test system: Phospholipase A2 group IB, pancreatic (Sus scrofa)
Assay: Inhibition of secretory PLA2 activity in porcine pancreas using [3H]-oleate labelled membranes at a concentration of 10 uM

Structure (SMILES) | I [%]
CCCCCCCCCCCCCCC(N)CN(CC)CC (configuration not stated) | 68.5
CCCCCCCCCCCCCCC(CO)NCC (configuration not stated) | 81.9
